Assay results taken from PubChem BioAssay AID2696 (Johns Hopkins Ion Channel Center, 2010).
Some tests of the compounds listed are not included; inactive here does not mean inactive elsewhere.

Chains of the proteins cited; added tags and fusions are not shown.
UniProt Q61143, whole entry: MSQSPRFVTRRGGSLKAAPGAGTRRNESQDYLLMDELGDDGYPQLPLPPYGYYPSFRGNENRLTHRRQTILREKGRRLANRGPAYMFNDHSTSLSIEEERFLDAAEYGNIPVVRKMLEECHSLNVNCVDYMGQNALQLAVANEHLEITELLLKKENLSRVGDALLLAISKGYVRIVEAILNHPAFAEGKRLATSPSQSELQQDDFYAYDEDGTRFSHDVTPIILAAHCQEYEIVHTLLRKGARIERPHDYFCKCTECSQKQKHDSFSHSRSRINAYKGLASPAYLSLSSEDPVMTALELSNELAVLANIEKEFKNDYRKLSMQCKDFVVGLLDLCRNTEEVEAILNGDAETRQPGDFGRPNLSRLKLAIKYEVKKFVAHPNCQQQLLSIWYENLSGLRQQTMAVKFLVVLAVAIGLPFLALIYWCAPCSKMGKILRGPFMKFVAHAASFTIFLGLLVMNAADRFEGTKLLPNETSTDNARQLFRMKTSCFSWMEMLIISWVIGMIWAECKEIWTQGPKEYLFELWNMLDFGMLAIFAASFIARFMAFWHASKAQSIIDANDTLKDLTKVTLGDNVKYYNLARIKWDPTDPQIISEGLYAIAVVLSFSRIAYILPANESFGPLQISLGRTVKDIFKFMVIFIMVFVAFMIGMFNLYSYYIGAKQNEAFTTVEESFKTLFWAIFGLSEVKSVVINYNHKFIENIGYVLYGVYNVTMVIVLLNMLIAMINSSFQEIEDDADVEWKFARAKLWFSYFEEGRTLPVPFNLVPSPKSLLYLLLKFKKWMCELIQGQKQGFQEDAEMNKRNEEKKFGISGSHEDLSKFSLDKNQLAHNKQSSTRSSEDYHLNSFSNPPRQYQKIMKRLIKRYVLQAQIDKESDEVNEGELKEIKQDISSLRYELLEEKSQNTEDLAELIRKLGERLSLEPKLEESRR

Molecular target: Short transient receptor potential channel 6 (Mus musculus) (UniProt Q61143)
Assay: TRPC6 inhibitor potency, dose response, cell-based, mouse TRPC6, HEK293, membrane potential (AID 2696)
Conditions: TRPC6-expressing cells, fluorescence ratio calcium influx

O=C(OC1CN2CCC1CC2)C(CO)(c1ccccc1)c1ccccc1 (stereo unspecified)
IC50: 350 nM
